This passage reports LogIC50 (pM), reduction of cAMP levels in forskolin-stimulated THP-1 cells and bottom plateau (%), reduction of cAMP levels in forskolin-stimulated THP-1 cells results from article PMC4113718.

Sequences of proteins named here, by UniProt entry; tags and fusion partners are left off.
UniProt P61073, whole entry: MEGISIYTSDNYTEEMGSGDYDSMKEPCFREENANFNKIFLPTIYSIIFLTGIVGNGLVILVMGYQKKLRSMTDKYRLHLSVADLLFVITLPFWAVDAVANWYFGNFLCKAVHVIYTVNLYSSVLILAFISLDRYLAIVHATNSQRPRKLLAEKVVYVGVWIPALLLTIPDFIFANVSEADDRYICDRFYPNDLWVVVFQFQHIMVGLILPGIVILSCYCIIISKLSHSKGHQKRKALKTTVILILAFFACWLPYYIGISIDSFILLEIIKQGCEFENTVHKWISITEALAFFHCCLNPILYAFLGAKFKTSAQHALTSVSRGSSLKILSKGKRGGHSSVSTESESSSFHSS

This assay concerns the target CXC chemokine receptor (CXCR) 4 on THP-1 cells (human (endogenous in THP-1)) (UniProt P61073).
As to “Ub(1–74)VV (from UniProt P0CG47 1-76) (ligand)”, the LogIC50 (pM), reduction of cAMP levels in forskolin-stimulated THP-1 cells is 2.1 log(pM).
On to “Ub(1–74)GGY (from UniProt P0CG47 1-76) (ligand)”, for which the LogIC50 (pM), reduction of cAMP levels in forskolin-stimulated THP-1 cells is 2.6 log(pM) and the bottom plateau (%), reduction of cAMP levels in forskolin-stimulated THP-1 cells was found to be 78.2%.
“Ub(1–74)RR (from UniProt P0CG47 1-76) (ligand)”: the LogIC50 (pM), reduction of cAMP levels in forskolin-stimulated THP-1 cells is 2.1 log(pM).
“ubiquitin (from UniProt P0CG47 1-76) (ligand)”: the bottom plateau (%), reduction of cAMP levels in forskolin-stimulated THP-1 cells was 59.9%.
For “Ub(1–74)DD (from UniProt P0CG47 1-76) (ligand)”, the LogIC50 (pM), reduction of cAMP levels in forskolin-stimulated THP-1 cells is 2 log(pM) and the bottom plateau (%), reduction of cAMP levels in forskolin-stimulated THP-1 cells came to 58.7%.
